Measurements reported in ChEMBL document CHEMBL5512675, “Design of Selective PARP-1 Inhibitors and Antitumor Studies” (J Med Chem, 2024).
Blank lines part the entries; values can stand above or below the compound they belong to.

The chains behind the UniProt entries cited, without tags or fusion partners. Where a name states a change or a piece, a line headed by the entry shows the natural chain unless it says otherwise.
UniProt Q9UGN5: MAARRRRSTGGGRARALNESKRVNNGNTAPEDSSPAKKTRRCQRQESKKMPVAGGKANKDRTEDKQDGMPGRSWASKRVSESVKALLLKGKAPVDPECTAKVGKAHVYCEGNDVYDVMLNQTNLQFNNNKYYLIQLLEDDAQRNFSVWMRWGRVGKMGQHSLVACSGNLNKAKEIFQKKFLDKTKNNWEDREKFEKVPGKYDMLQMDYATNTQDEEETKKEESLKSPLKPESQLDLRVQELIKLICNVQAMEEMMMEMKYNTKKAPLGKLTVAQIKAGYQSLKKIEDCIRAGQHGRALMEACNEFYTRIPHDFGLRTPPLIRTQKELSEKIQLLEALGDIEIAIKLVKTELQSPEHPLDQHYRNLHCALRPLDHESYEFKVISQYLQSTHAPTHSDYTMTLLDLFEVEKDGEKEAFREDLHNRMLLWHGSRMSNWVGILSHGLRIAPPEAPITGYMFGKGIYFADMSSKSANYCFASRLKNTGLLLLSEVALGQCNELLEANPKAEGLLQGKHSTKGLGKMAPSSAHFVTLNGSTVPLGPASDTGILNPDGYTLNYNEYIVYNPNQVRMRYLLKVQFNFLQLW

How the values were obtained:
[1] = biological target: Poly [ADP-ribose] polymerase 2 (Homo sapiens, UniProt Q9UGN5); experiment: Inhibition of GST-tagged human PARP2 at 1 uM incubated for 30 mins by chemiluminescence based UV/visible spectrophotometric analysis relative to control
[2] = Sub-acute toxicity in Kunming mouse assessed as effect on lung structure at 1000 mg/kg, po administered as repetitive dose for 14 days by H and E staining based analysis; format: organism-based; details: in vivo, 336 h, time 14 day
[3] = Toxicity in female BALB/c nude mouse xenografted with human SK-OV-3 cells assessed as effect on body weight at 25 to 50 mg/kg, po administered via gavage once daily for 31 days; format: organism-based; details: in vivo, 744 h, dose 25-50 mg/kg, time 31 day
[4] = Acute toxicity in Kunming mouse assessed as change in behavior at 500 to 2000 mg/kg, po administered as single dose for 14 days; format: organism-based; details: in vivo, 336 h, dose 500-2000 mg/kg, time 14 day
[5] = Sub-acute toxicity in Kunming mouse assessed as effect on heart cellular morphology at 1000 mg/kg, po administered as repetitive dose for 14 days by H and E staining based analysis; format: organism-based; details: in vivo, 336 h, time 14 day
[6] = Acute toxicity in Kunming mouse assessed as effect on body weight at 500 to 2000 mg/kg, po administered as single dose for 14 days; format: organism-based; details: in vivo, 336 h, dose 500-2000 mg/kg, time 14 day
HeLa [7] = experiment: Antitumor activity against human HeLa cells xenografted in female BALB/c nude mouse assessed as tumor suppression rate at 25 mg/kg, po administered via gavage once daily for 35 days relative to control; format: functional; details: time 35 day
[8] = Sub-acute toxicity in Kunming mouse assessed as effect on spleen weight at 1000 mg/kg, po administered as repetitive dose for 14 days; format: organism-based; details: in vivo, 336 h, time 14 day
[9] = Sub-acute toxicity in Kunming mouse assessed as effect on liver cellular morphology at 1000 mg/kg, po administered as repetitive dose for 14 days by H and E staining based analysis; format: organism-based; details: in vivo, 336 h, time 14 day
[10] = Sub-acute toxicity in Kunming mouse assessed as effect on liver weight at 1000 mg/kg, po administered as repetitive dose for 14 days; format: organism-based; details: in vivo, 336 h, time 14 day
[11] = Sub-acute toxicity in Kunming mouse assessed as effect on body weight at 1000 mg/kg, po administered as repetitive dose for 14 days; format: organism-based; details: in vivo, 336 h, time 14 day
[12] = Sub-acute toxicity in Kunming mouse assessed as effect on kidney structure at 1000 mg/kg, po administered as repetitive dose for 14 days by H and E staining based analysis; format: organism-based; details: in vivo, 336 h, time 14 day
[13] = Toxicity in female BALB/c nude mouse xenografted with human SK-OV-3 cells assessed as effect on diet at 25 to 50 mg/kg, po administered via gavage once daily for 31 days; format: organism-based; details: in vivo, 744 h, dose 25-50 mg/kg, time 31 day
[14] = Sub-acute toxicity in Kunming mouse assessed as effect on lung cellular morphology at 1000 mg/kg, po administered as repetitive dose for 14 days by H and E staining based analysis; format: organism-based; details: in vivo, 336 h, time 14 day
[15] = Acute toxicity in Kunming mouse assessed as effect on lung weight at 500 to 2000 mg/kg, po administered as single dose for 14 days; format: organism-based; details: in vivo, 336 h, dose 500-2000 mg/kg, time 14 day
[16] = Sub-acute toxicity in Kunming mouse assessed as mortality at 1000 mg/kg, po administered as repetitive dose for 14 days; format: organism-based; details: in vivo, 336 h, time 14 day
[17] = Toxicity in nude mouse assessed as effect on body weight at 50 mg/kg, po; format: organism-based; details: in vivo
[18] = Sub-acute toxicity in Kunming mouse assessed as effect on lung weight at 1000 mg/kg, po administered as repetitive dose for 14 days; format: organism-based; details: in vivo, 336 h, time 14 day
[19] = Acute toxicity in Kunming mouse assessed as effect on spleen weight at 500 to 2000 mg/kg, po administered as single dose for 14 days; format: organism-based; details: in vivo, 336 h, dose 500-2000 mg/kg, time 14 day
[20] = Sub-acute toxicity in Kunming mouse assessed as effect on kidney cellular morphology at 1000 mg/kg, po administered as repetitive dose for 14 days by H and E staining based analysis; format: organism-based; details: in vivo, 336 h, time 14 day
[21] = Acute toxicity in Kunming mouse assessed as effect on external signs at 500 to 2000 mg/kg, po administered as single dose for 14 days; format: organism-based; details: in vivo, 336 h, dose 500-2000 mg/kg, time 14 day
[22] = Sub-acute toxicity in Kunming mouse assessed as effect on liver structure at 1000 mg/kg, po administered as repetitive dose for 14 days by H and E staining based analysis; format: organism-based; details: in vivo, 336 h, time 14 day
[23] = Sub-acute toxicity in Kunming mouse assessed as effect on behavior at 1000 mg/kg, po administered as repetitive dose for 14 days; format: organism-based; details: in vivo, 336 h, time 14 day
[24] = Acute toxicity in Kunming mouse assessed as effect on liver weight at 500 to 2000 mg/kg, po administered as single dose for 14 days; format: organism-based; details: in vivo, 336 h, dose 500-2000 mg/kg, time 14 day
[25] = Sub-acute toxicity in Kunming mouse assessed as effect on external signs at 1000 mg/kg, po administered as repetitive dose for 14 days; format: organism-based; details: in vivo, 336 h, time 14 day
[26] = Toxicity in female BALB/c nude mouse xenografted with human HeLa cells assessed as effect on body weight at 25 to 50 mg/kg, po administered via gavage once daily for 35 days; format: organism-based; details: in vivo, 840 h, dose 25-50 mg/kg, time 35 day
HeLa [27] = experiment: Antitumor activity against human HeLa cells xenografted in female BALB/c nude mouse assessed as tumor suppression rate at 50 mg/kg, po administered via gavage once daily for 35 days relative to control; format: functional; details: time 35 day
[28] = Sub-acute toxicity in Kunming mouse assessed as effect on spleen cellular morphology at 1000 mg/kg, po administered as repetitive dose for 14 days by H and E staining based analysis; format: organism-based; details: in vivo, 336 h, time 14 day
[29] = Acute toxicity in Kunming mouse assessed as mortality at 500 to 2000 mg/kg, po administered as single dose for 14 days; format: organism-based; details: in vivo, 336 h, dose 500-2000 mg/kg, time 14 day
[30] = Toxicity in female BALB/c nude mouse xenografted with human SK-OV-3 cells assessed as effect on behavior at 25 to 50 mg/kg, po administered via gavage once daily for 31 days; format: organism-based; details: in vivo, 744 h, dose 25-50 mg/kg, time 31 day
[31] = Sub-acute toxicity in Kunming mouse assessed as effect on heart structure at 1000 mg/kg, po administered as repetitive dose for 14 days by H and E staining based analysis; format: organism-based; details: in vivo, 336 h, time 14 day
[32] = Acute toxicity in Kunming mouse assessed as effect on kidney weight at 500 to 2000 mg/kg, po administered as single dose for 14 days; format: organism-based; details: in vivo, 336 h, dose 500-2000 mg/kg, time 14 day
[33] = Sub-acute toxicity in Kunming mouse assessed as effect on kidney weight at 1000 mg/kg, po administered as repetitive dose for 14 days; format: organism-based; details: in vivo, 336 h, time 14 day
[34] = Sub-acute toxicity in Kunming mouse assessed as effect on spleen structure at 1000 mg/kg, po administered as repetitive dose for 14 days by H and E staining based analysis; format: organism-based; details: in vivo, 336 h, time 14 day
[35] = Acute toxicity in Kunming mouse assessed as effect on heart weight at 500 to 2000 mg/kg, po administered as single dose for 14 days; format: organism-based; details: in vivo, 336 h, dose 500-2000 mg/kg, time 14 day
[36] = Sub-acute toxicity in Kunming mouse assessed as effect on heart weight at 1000 mg/kg, po administered as repetitive dose for 14 days; format: organism-based; details: in vivo, 336 h, time 14 day

- inhibition [1]: 38.4%
SMILES: COc1cc(-c2nc3c(C(N)=O)cccc3[nH]2)ccc1OC(=O)c1ccccc1C(F)(F)F

- inhibition [1]: < 5%
SMILES: COc1cc(/C=N/NC(N)=S)cc(Br)c1OC(C)=O

- inhibition [1]: 35.3%
SMILES: COc1cc(/C=N/NC(N)=S)c(Br)c(Br)c1OCc1ccc(Br)cc1

- inhibition [1]: 31.2%
SMILES: COc1cc(-c2nc3c(C(N)=O)cccc3[nH]2)c(Br)c(Br)c1OC(C)=O

- inhibition [1]: < 5%
SMILES: COc1cc(-c2nc3c(C(N)=O)cccc3[nH]2)c(Br)c(Br)c1OS(=O)(=O)c1ccc(F)c(Cl)c1

- inhibition [1]: 5.35%
SMILES: COc1cc(-c2nc3c(C(N)=O)cccc3[nH]2)c(Br)c(Br)c1OCc1ccc(Br)cc1

- inhibition [1]: < 5%
SMILES: COc1cc(-c2nc3c(C(N)=O)cccc3[nH]2)c(Br)c(Br)c1OS(=O)(=O)c1ccc(C)cc1

- inhibition [1]: < 5%
SMILES: COc1cc(-c2nc3c(C(N)=O)cccc3[nH]2)cc(Br)c1OS(=O)(=O)c1cccc2ccccc12

- inhibition [1]: < 5%
SMILES: COc1cc(-c2nc3c(C(N)=O)cccc3[nH]2)cc(Br)c1OS(=O)(=O)c1ccc(I)cc1

- inhibition [1]: 13.9%
SMILES: COc1cc(/C=N/NC(N)=S)c(Br)c(Br)c1OCc1ccc(C)cc1

- inhibition [1]: 17.6%
SMILES: COc1cc(/C=N/NC(N)=S)c(Br)c(Br)c1OC(=O)c1ccc(Br)cc1

SMILES: COc1cc(-c2nc3c(C(N)=O)cccc3[nH]2)cc(Br)c1OS(=O)(=O)c1ccccc1C
- Activity [2]: Non-Toxic
- Activity [3]: Non-Toxic
- Activity [4]: Non-Toxic
- Activity [5]: Non-Toxic
- Activity [6]: Non-Toxic
- Activity (HeLa [7]): 69.86%
- Activity [8]: Non-Toxic
- Activity [9]: Non-Toxic
- Activity [10]: Non-Toxic
- Activity [11]: Non-Toxic
- inhibition [1]: 21.9%
- Activity [12]: Non-Toxic
- Activity [13]: Non-Toxic
- Activity [14]: Non-Toxic
- Activity [15]: Non-Toxic
- Activity [16]: Non-Toxic
- Activity [17]: Non-Toxic
- Activity [18]: Non-Toxic
- Activity [19]: Non-Toxic
- Activity [20]: Non-Toxic
- Activity [21]: Non-Toxic
- Activity [22]: Non-Toxic
- Activity [23]: Non-Toxic
- Activity [24]: Non-Toxic
- Activity [25]: Non-Toxic
- Activity [26]: Non-Toxic
- Activity (HeLa [27]): 76.55%
- Activity [28]: Non-Toxic
- Activity [29]: Non-Toxic
- Activity [30]: Non-Toxic
- Activity [31]: Non-Toxic
- Activity [32]: Non-Toxic
- Activity [33]: Non-Toxic
- Activity [34]: Non-Toxic
- Activity [35]: Non-Toxic
- Activity [36]: Non-Toxic

- inhibition [1]: < 5%
SMILES: COc1cc(/C=N/NC(N)=S)cc(Br)c1OC(=O)C(C)(C)C

- inhibition [1]: 46.8%
SMILES: COc1cc(-c2nc3c(C(N)=O)cccc3[nH]2)c(Br)c(Br)c1OC(=O)c1ccc(F)cc1

- inhibition [1]: 46.7%
SMILES: COc1cc(/C=N/NC(N)=S)ccc1OS(=O)(=O)c1c(C)cc(C)cc1C

- inhibition [1]: 57.8%
SMILES: COc1cc(-c2nc3c(C(N)=O)cccc3[nH]2)c(Br)c(Br)c1OC(=O)CCBr

- inhibition [1]: < 5%
SMILES: COc1cc(-c2nc3c(C(N)=O)cccc3[nH]2)c(Br)c(Br)c1OS(=O)(=O)c1ccc(OC(F)(F)F)cc1

- inhibition [1]: < 5%
SMILES: COc1cc(-c2nc3c(C(N)=O)cccc3[nH]2)c(Br)c(Br)c1OCc1ccccc1C(F)(F)F
